In ChEMBL document CHEMBL1130720, “Design, synthesis, and conformational analysis of a novel series of HIV protease inhibitors” (Bioorg Med Chem Lett, 1998) one finds Ki data, which are given here for one compound.

By Ki is commonly meant a measure of affinity in units of concentration, obtained from inhibition or displacement. Higher therefore signals weaker binding.

This assay has as its target Human immunodeficiency virus type 1 protease (Human immunodeficiency virus 1, UniProt Q72874). As to the kind of experiment: Binding affinity to HIV-1 protease was determined.

As for `COc1ccc(S(=O)(=O)N(CC2CCCC2)C[C@@H](O)CN(CCc2ccccc2)C(=O)OCC2COCO2)cc1` (stereo partly specified), the Ki was determined as 65 nM. In other words, the double-digit nanomolar range.
